Assay: clinical
Conditions: human, in vivo

Kp: 0.95 ± 0.52
SMILES: Cn1c(=O)c2c(ncn2C)n(C)c1=O [caffeine]

Reference: US12433510B2, “Methods and systems for improved collection of interstitial fluid” (Georgia Tech Research Corporation, priority 2017, dated 2025)
